According to patent US10544132B2, “Isoindolinone inhibitors of the MDM2-p53 interaction having anticancer activity” (ASTEX THERAPEUTICS LIMITED, priority 2015, dated 2020):

What was measured:
SJSA-1 cells [1] = assay: SJSA-1 CellTiter-Glo luminescent cell viability assay (Protocol B); settings: Homo sapiens, SJSA-1, 72 h, read-out: SJSA1 IC50 (μM) (Protocol B)
SJSA-1 cells [2] = assay: SJSA-1 growth inhibition, sulphorhodamine B (SRB) method (Protocol A); settings: Homo sapiens, SJSA-1, 72 h, read-out: SJSA-1 IC50 (μM) (Protocol A)

With `CC(C)(O)c1cc(F)c2c(c1)C(=O)N(Cc1ccc(Cl)cc1)[C@@]2(OCC1(CO)CC1)c1ccc(Cl)cc1` [Example 2, (3R)-3-(4-chlorophenyl)-2-[(4-chlorophenyl)methyl]-4-fluoro-3-{[1-(hydroxymethyl)cyclopropyl]methoxy}-6-(2-hydroxypropan-2-yl)-2,3-dihydro-1H-isoindol-1-one] the IC50 (SJSA-1 cells [1]) was 0.46 µM and the IC50 (SJSA-1 cells [2]) was 0.33 µM.
